# Measured values from patent US10548896B2, “Treatment of relapsed and/or refractory solid tumors and non-Hodgkin's lymphomas” (CELGENE QUANTICEL RESEARCH, INC., priority 2016, dated 2020).
# Experiment: 4-week toxicity study with 4-week recovery in mice (incl. toxicokinetics)
compound,measurement,setting,value
"COc1ccc(-c2c(-c3ccc(C#N)c(F)c3)nc(N3CCC(N)CC3)n(C)c2=O)cc1F [Compound A, 4-[2-(4-amino-piperidin-1-yl)-5-(3-fluoro-4-methoxy-phenyl)-1-methyl-6-oxo-1,6-dihydro-pyrimidin-4-yl]-2-fluoro-benzonitrile]",platelet and reticulocyte counts,45 mg base/kg/dose,Marked decreases in platelet and reticulocyte counts
same,animals sacrificed in moribund condition,"45 mg base/kg/dose QDx5/week, TK subgroup",Five
